{
  "source": "patent US11766422B2",
  "about": "“Galloylated procyanidins for treating endovascular dysfunction and increasing blood flow” (UNIVERSITY OF SOUTH FLORIDA, priority 2018, dated 2023)",
  "origin": "cited, not measured here",
  "system": "S-G cells (immortalized gum epithelial cells)",
  "conditions": "cited from earlier work",
  "data": [
    {"substance": "catechin", "values": [
      {"measurement": "Effect: Cytotoxicity towards S-G cells (immortalized gum epithelial cells)", "result": "↑"}
    ]}
  ]
}
